# Measurements: US20220370623A1, “Nanoparticles Comprising Prodrugs Stabilized by Albumin for Treatment of Cancer and Other Diseases” (Luminus Biosciences, Inc., priority 2019, published 2022)
# Test: Particle size of albumin solution after high-pressure homogenization, photon correlation spectroscopy (Malvern Zetasizer)
# Format: physicochemical
# Protocol: An organic phase was prepared by mixing 3.5 mL of chloroform and 0.6 mL of dehydrated ethanol. A 4% human albumin solution was prepared by dissolving 2 gm of human albumin (Sigma-Aldrich Co, USA) in 50 mL of sterile Type I water. The pH of the human albumin solution was adjusted to 6.0-6.7 by adding either 1N hydrochloric acid or 1N sodium hydroxide solution in sterile water. The above organic solution was added to the albumin phase and the mixture was pre-homogenized with an IKA homogenizer at 6000-10000 RPM (IKA Works, Germany). The resulting emulsion was subjected to high-pressure homogenization (Avestin Inc, USA). The pressure was varied between 20,000 and 30,000 psi and the emulsification process was continued for 5-8 passes. During homogenization the emulsion was cooled between 5° C. and 10° C. by circulating the coolant through the homogenizer from a temperature-controlled heat exchanger (Julabo, USA). […] The emulsion was then transferred to a rotary evaporator (Buchi, Switzerland) and rapidly evaporated to obtain an albumin solution subjected to high pressure homogenization. The evaporator pressure was set during the evaporation by a vacuum pump (Welch) at 1-5 mm Hg and the bath temperature during evaporation was set at 35° C.
# The particle size of the albumin solution was determined by photon correlation spectroscopy with a Malvern Zetasizer. It was observed that there were two peaks, one around 5-8 nm and other around 120-140 nm. The peak around 5-8 nm contained nearly 99% by volume and the peak around 120-140 nm had less than 1% by volume (FIG. 9). As a control, the particle size distribution in 4% human serum solution was measured. It had only one peak around 5-8 nm (FIG. 10).
# [1] = 4% albumin after homogenization with chloroform and ethanol
substance,measurement,setting,value
"Example 1: 4% human albumin solution homogenized at high pressure with chloroform and ethanol, solvent evaporated; no drug","particle size, first peak",[1],5-8 nm
same,"particle size, second peak",[1],120-140 nm
same,share of first peak (5-8 nm),after homogenization,~99 % by volume
same,share of second peak (120-140 nm),after homogenization,less than 1 % by volume
same,albumin molecules aggregated by denaturation,homogenization in an oil-in-water emulsion,2-3%
